Tested on: A549
Experiment: Induction of apoptosis in human A549 cells assessed as viable cells at IC50 incubated for 24 hrs by Annexin V-FITC/PI staining based flow cytometry (reference value: 91.838 %)
Type: functional

**Q.** Which Activity does the source give for `O=C(CN1CCN(S(=O)(=O)c2ccccc2)CC1)c1cnc2ncccn12` here?
**A.** Its Activity is 56.432%.

— ChEMBL document CHEMBL6083227, “Novel sulfonamides unveiled as potent anti-lung cancer agents via tumor pyruvate kinase M2 activation” (RSC Med Chem, 2024)
